Laboratory results reported in paper PMC13642346, “Steric control of signaling bias in the immunometabolic receptor GPR84” (2026).

Key:
GPR84-Gi complex = GPR84-Gi complex (Homo sapiens, UniProt Q9NQS5); assay: cryo-EM structure, […] Å; conditions: orthosteric; headgroup ring orientation ambiguous
[1] = target: GPR84-Gi2α fusion protein (FLAG-GPR84-Gαi2) (Homo sapiens, UniProt Q9NQS5, R172A); assay: […]GTPγS binding, membranes; conditions: orthosteric agonist; 30 °C, pH 7.4, 1 µM GDP
[2] = target: GPR84-Gi2α fusion protein (FLAG-GPR84-Gαi2) (Homo sapiens, UniProt Q9NQS5, L336A); assay: […]GTPγS binding, membranes; conditions: orthosteric agonist; 30 °C, pH 7.4, 1 µM GDP
[3] = target: GPR84-Gi2α fusion protein (FLAG-GPR84-Gαi2) (Homo sapiens, UniProt Q9NQS5, F187A); assay: […]GTPγS binding, membranes; conditions: orthosteric agonist; 30 °C, pH 7.4, 1 µM GDP
[4] = target: GPR84 (human GPR84, hGPR84) (Homo sapiens, UniProt Q9NQS5); assay: competition binding kinetics with [3H][…] (koff/kon); conditions: read-out: affinity calculated from rate constants; pH 7.4; orthosteric; one range printed for all three ligands

- EC50 [2]: 0.1 nM
- EC50 [3]: 0.1 nM
- Kd [4]: 1 to 2 nM
SMILES: [O-][n+]1cc(O)cc(CCCc2ccc(Cl)c(C(F)(F)F)c2)c1
- cryo-EM structure, 3.03 Å (GPR84-Gi complex): we determined a cryo-EM structure of the GPR84-Gi complex with OX04529
- EC50 [1]: lacking detectable potency at Arg172^ECL2Ala GPR84
